Assay results: ChEMBL document CHEMBL1128201, “Selective and potent monoamine oxidase type B inhibitors: 2-substituted 5-aryltetrazole derivatives” (J Med Chem, 1995)
pIC50: −log10 of the molar value.

The chains behind the UniProt entries cited, without tags or fusion partners.
UniProt P19643, whole entry: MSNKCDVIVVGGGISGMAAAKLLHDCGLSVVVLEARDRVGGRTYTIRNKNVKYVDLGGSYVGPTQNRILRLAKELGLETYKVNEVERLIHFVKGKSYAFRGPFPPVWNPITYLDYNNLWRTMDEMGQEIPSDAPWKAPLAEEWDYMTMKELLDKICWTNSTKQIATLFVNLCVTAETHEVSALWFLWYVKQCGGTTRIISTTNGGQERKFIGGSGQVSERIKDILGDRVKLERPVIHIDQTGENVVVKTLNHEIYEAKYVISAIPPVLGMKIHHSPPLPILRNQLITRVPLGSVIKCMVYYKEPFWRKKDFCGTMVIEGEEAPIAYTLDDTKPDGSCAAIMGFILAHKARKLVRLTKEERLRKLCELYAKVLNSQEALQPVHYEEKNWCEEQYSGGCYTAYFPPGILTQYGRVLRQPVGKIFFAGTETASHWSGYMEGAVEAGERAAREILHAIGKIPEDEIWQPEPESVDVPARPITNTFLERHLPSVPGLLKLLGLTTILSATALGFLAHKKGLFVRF
UniProt P21396, whole entry: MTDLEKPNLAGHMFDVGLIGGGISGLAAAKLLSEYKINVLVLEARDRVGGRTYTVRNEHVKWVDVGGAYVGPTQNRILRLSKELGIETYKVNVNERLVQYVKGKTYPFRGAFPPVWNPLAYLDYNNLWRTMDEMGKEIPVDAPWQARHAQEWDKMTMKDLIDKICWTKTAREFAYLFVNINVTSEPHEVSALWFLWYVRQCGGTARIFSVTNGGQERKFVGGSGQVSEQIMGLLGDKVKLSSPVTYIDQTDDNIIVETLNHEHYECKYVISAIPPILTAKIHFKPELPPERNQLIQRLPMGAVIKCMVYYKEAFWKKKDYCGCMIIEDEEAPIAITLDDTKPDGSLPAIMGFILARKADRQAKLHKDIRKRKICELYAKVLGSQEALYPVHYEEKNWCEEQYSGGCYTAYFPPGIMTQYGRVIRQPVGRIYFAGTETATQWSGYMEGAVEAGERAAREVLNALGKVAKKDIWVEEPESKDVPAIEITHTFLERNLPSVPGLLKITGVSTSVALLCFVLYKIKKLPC

Legend:
[1] = molecular target: Amine oxidase [flavin-containing] B (Rattus norvegicus, UniProt P19643); test: In vitro inhibitory activity against rat brain Monoamine oxidase B
[2] = molecular target: Amine oxidase [flavin-containing] A (Rattus norvegicus, UniProt P21396); test: In vitro inhibitory activity against rat brain Monoamine oxidase A

## NCCNC(=O)c1ccc(Cl)cn1 [LAZABEMIDE]
[1]
  pIC50: 7.52
[2]
  pIC50: < 5.00
